This experiment deals with human recombinant D3 (hD3) receptors (Homo sapiens, UniProt P35462, G9S).

Protein sequences, listed by entry. Tags and fused reporters are not part of them.
UniProt P35462, whole entry G9S: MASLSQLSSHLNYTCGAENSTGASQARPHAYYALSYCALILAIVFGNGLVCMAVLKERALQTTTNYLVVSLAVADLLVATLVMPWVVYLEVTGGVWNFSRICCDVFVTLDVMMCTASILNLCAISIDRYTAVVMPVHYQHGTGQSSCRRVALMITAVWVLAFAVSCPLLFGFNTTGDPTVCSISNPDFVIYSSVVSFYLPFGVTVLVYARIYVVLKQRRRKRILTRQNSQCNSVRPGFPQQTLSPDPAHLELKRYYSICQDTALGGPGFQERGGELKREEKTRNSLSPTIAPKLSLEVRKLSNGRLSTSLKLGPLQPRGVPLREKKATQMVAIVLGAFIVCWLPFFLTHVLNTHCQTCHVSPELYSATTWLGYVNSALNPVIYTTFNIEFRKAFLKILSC

As for `CCCN(CCC)[C@@H]1CCc2cc(CS(=O)(=O)c3ccc(OC)cc3)ccc2C1` [GR218231], the “selectivity for hD3 over hD2s receptors” value (binding) stood at 80 fold. Under “n = 3-11”, the “Affinity estimates (pKi ± s.e.m.) hD3” value is 8.7 ± 0.13.
